Amino acid sequences for entries named in this document (tags omitted).
UniProt Q9UKE5, whole entry: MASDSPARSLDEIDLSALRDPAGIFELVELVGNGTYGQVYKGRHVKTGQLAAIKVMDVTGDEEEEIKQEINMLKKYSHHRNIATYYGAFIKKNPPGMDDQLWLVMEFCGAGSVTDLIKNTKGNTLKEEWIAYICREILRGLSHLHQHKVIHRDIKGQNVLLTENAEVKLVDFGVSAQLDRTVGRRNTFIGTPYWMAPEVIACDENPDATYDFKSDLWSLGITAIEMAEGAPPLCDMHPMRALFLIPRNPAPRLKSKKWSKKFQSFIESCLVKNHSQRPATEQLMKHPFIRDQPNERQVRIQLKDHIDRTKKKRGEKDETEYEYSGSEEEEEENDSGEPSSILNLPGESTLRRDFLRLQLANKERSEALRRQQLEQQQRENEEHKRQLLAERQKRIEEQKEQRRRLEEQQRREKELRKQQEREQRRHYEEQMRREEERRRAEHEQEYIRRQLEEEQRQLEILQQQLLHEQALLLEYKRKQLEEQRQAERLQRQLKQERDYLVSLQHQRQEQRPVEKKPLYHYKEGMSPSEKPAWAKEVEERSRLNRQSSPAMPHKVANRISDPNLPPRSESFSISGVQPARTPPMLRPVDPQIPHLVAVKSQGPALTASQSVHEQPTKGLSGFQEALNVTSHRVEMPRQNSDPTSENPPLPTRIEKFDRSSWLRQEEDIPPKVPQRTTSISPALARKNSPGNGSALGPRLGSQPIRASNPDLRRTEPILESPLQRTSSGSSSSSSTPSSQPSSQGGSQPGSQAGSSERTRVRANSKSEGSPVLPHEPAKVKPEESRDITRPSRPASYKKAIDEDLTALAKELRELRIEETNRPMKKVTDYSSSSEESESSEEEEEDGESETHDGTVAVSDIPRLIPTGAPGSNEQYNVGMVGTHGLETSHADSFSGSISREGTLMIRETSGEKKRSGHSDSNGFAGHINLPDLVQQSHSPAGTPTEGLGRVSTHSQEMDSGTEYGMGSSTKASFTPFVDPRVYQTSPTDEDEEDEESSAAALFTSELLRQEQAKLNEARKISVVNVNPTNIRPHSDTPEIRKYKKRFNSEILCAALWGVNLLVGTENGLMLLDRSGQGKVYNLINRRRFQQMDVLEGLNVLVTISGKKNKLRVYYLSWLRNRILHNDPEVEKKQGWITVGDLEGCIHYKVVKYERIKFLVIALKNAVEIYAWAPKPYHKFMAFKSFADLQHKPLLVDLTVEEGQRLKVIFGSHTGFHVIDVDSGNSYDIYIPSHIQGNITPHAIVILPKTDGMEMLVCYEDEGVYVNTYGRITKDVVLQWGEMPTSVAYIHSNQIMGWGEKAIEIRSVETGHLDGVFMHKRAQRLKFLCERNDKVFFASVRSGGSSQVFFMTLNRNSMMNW

According to patent publication EP4837905A1, “BIPHENYL DERIVATIVE, PHARMACEUTICAL COMPOSITION AND USE THEREOF” (dated 2026):

Assays:
TNIK = TNIK (Homo sapiens, UniProt Q9UKE5); experiment: IC50 screening against target kinase (ADP-Glo); conditions: room temperature, 60 minutes reaction, values only in Fig. 15
Text: To further evaluate the binding ability of biphenyl derivatives to target kinases, IC50 was used to detect the inhibitory effect of biphenyl derivatives on target kinases. In this experiment, IC50 represents the concentration of drug or inhibitor required to inhibit the activity of a specified kinase by half. In pharmacology, it is used to characterize the antagonistic ability of antagonists in in vitro experiments.
First, prepare 2 × ATP and substrate mixture solution and 2 × TNIK and MgCl2 mixture solution using test buffer, respectively. Then, transfer 40 nL of small molecules and 2 µL of 2 × TNIK and MgCl2 mixture solution to a 384-well plate. After mixing at room temperature, incubate for 10 minutes. Next, transfer 2 µL of 2 × ATP and substrate mixture solution to the 384-well plate, and react at room temperature for 60 minutes. Add 4 µL of ADP-Glo reagent (supplier: Promega; product number: V9103) to the reaction system, and incubate at room temperature for 40 minutes. Finally, add 8 µL of kinase detection reagent (supplier: Promega; product number: V9103) to the reaction system, incubate at room temperature for 40 minutes, and read the fluorescence signal using a microplate reader. The concentration gradients of biphenyl derivatives I-1, I-4, I-12 are set at 50000 µM, 12500 µM, 3125 µM, 781.3 µM, 195.3 µM, 48.83 µM, 12.21 µM, 3.05 µM, 0.76 µM, and 0.19 µM.
The calculation formula for inhibition rate (%) is: inhibition rate (%) = 100% - (small molecule reading - positive control reading) / (negative control reading - positive control reading) * 100%. By substituting the inhibition rate (%) and the Log value of inhibitor concentration into the nonlinear regression equation, the IC50 of the small molecule can be calculated as: Y = Bottom + (Top - Bottom) / (1 + 10^((LogIC50 - X) * hillslope)), where X is the Log value of inhibitor concentration and Y is the inhibition rate (%).

330 kinases = experiment: In vitro kinase profile screening (HTRF or ADP-Glo); conditions: I-1 10 mM, 25 nL in DMSO; kinase 15-50 nM; ATP 10-60 µM; 25 °C; values only in Figs. 13-14
Description: Based on the results from Example 1, in vitro kinase profile screening was conducted on the biphenyl derivatives in this application to further confirm the actual functional interactions between these derivatives and target kinases. Through the screening of inhibitory effects on activity among 330 kinases, during the kinase activity assay, the kinase (15-50 nM, 2.5 µL, prepared in assay buffer) was first mixed with biphenyl derivative I-1 (10 mM, 25 nL, prepared in DMSO) and incubated at 25 °C for 10 minutes. Subsequently, a mixture of kinase peptide substrate (0.2 mg/ml; supplier: GenScript) and ATP (10-60 µM; supplier: Promega; product number: V915B) (total 2.5 µL, prepared in assay buffer) was added to the mixed system, and the reaction was allowed to proceed at 25 °C for 60-120 minutes. Finally, the reaction products were quantitatively detected using the HTRF or ADP-Glo method. The composition of the test buffer is as follows: 50 mM HEPES (supplier: Thermo Fisher; product number: 15630080), 10 mM MgCl2 (supplier: Sigma; product number: M1028), 0.01% Brij35 (supplier: Millipore; product number: 1018940100), 1 mM EGTA (supplier: Sigma; product number: E3889), and 2 mM DTT (supplier: MCE; product number: HY-15917). During the kinase activity assay, the consumption of each substrate was less than 10%. Each kinase activity assay was set up with two technical replicates.

SMILES | IC50 against the target kinase (TNIK) | inhibitory effects on activity among 330 kinases (330 kinases)
Cn1ncc2c(-c3cccc(-c4cccc(N)c4)c3)cccc21 | significant antagonistic activity against the target kinase | –
Cn1ncc2c(-c3cccc([C@H]4CNC(=O)C4)c3)cccc21 | significant antagonistic activity against the target kinase | significant inhibitory effects on multiple target kinases
Cn1ncc2c(-c3cccc(-c4cc(O)ccn4)c3)cccc21 | significant antagonistic activity against the target kinase | –
